Source: ChEMBL document CHEMBL2321760, “Design, synthesis, and biological evaluation of a series of benzo[de][1,7]naphthyridin-7(8H)-ones bearing a functionalized longer chain appendage as novel PARP1 inhibitors” (J Med Chem, 2013)

Amino acid sequences for entries named in this document (tags omitted).
UniProt P09874, whole entry: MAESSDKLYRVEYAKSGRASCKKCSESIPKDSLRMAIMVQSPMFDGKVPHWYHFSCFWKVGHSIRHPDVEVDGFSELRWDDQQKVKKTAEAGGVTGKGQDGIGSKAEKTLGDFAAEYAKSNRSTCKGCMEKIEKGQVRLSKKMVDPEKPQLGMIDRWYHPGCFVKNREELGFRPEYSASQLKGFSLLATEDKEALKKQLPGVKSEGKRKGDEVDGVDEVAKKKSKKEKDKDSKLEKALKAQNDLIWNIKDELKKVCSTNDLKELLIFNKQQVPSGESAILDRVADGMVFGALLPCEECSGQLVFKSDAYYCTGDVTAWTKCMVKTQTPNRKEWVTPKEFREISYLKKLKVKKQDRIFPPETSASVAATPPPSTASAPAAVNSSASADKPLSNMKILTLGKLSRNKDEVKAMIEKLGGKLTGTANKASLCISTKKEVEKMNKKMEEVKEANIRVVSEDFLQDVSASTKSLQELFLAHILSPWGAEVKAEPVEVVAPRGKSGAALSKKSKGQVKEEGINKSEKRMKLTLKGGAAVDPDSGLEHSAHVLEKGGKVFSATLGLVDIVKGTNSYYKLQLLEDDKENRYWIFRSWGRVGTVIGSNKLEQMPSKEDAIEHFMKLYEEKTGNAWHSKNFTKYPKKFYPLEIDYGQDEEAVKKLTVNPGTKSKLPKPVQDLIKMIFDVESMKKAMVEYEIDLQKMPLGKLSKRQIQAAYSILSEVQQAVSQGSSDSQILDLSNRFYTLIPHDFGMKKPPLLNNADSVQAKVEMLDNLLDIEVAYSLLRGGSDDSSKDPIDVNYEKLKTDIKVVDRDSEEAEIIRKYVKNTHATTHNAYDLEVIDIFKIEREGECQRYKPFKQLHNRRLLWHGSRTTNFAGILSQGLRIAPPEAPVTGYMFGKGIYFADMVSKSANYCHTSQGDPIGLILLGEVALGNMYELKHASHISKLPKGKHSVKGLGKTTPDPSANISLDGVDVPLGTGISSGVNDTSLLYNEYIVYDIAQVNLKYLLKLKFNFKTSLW

Target: Poly [ADP-ribose] polymerase 1 (Homo sapiens, UniProt P09874)
Assay: Ratio of AZD2281 IC50 to compound IC50 for human recombinant PARP1

| Ratio IC50 | SMILES |
| --- | --- |
| 2 | O=C1NCC2c3c(cccc31)CCN2C(=O)c1cc(Cc2n[nH]c(=O)c3c2CCCC3)ccc1F (stereo not drawn) |
| 2 | O=C1NCC2c3c(cccc31)CCN2C(=O)C1CCN(C(=O)c2cc(Cc3n[nH]c(=O)c4ccccc34)ccc2F)CC1 (stereo not drawn) |
| 13 | O=C1NCC2c3c(cccc31)CCN2C(=O)c1cc(Cc2n[nH]c(=O)c3ccccc23)ccc1F (stereo not drawn) |
